According to article PMC4349585 (Journal of medicinal chemistry, 2015):

Tested on: intraocular pressure (IOP), elevated IOP rat model
Experiment: IOP lowering on rat eyes after topical dosing
Type: in vivo, Brown Norway rats
Conditions: topical 50 μg (20 μL of […] solution), initial IOP ~ 28 mmHg

Structure (SMILES): Cc1[nH]c2ncnc(-c3ccc(NC(=O)N(CCN(C)C)c4ccc(Cl)cc4)c(F)c3)c2c1C [Compound 18w, 1-(4-Chlorophenyl)-3-(4-(5,6-dimethyl-7H-pyrrolo[2,3-d]pyrimidin-4-yl)-2-fluorophenyl)-1-(2-(dimethylamino)ethyl)urea]
- IOP lowering effect compared to the vehicle: significant decreases in IOP were detected at 4 h
